Ab-95 light chain CDR variants: yeast mating affinities

The measurements come from Engelhart et al. 2022 (doi:10.1038/s41597-022-01779-4) through the FLAb antibody collection.

Target peptide (SARS-CoV-2 spike, HR2 region): PDVDLGDISGINAS

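Library AAYL52 holds single substitutions and randomly drawn double and triple substitutions in the CDRs. The assay is AlphaSeq: two haploid yeast populations carry antibody and antigen on their surface. The frequency of each diploid, read from paired DNA barcodes, reflects how well the two displayed proteins bind. A regression on co-assayed BCL2-family reference pairs converts the normalised counts of each replicate to an apparent Kd. Mating was done three times.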

Parent: Ab-95, a human scFv built as VH, a 15-residue (Gly4Ser)3 linker, VL. Only the CDRs of the light chain vary.
VH: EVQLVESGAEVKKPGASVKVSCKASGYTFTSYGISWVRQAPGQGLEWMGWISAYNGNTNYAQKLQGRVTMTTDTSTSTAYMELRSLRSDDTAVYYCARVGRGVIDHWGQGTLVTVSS
VL: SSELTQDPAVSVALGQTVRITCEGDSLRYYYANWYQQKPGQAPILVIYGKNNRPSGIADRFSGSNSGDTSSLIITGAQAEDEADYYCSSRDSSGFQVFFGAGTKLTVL

Each variant is given by its three light chain CDRs, as the data file delimits them; those of the parent are EGDSLRYYYAN, GKNNRPS, SSRDSSGFQVF.
Kd is apparent (estimated from mating counts) and averaged on the log scale over replicates with a signal. Smaller is tighter.
"nd" means that the variant was in the library but no mating with the target was seen in any replicate; the authors take this as a sign of poor binding, and no number exists.
Background: pairings of library AAYL52 with three empty control strains gave a value in 28% of cases (median 8.2 µM, 5th percentile 800 nM). Values in that range, when seen in few replicates, are hard to tell from nonspecific mating. Also given: how often the same scFv was detected with the empty control strains.

| apparent Kd | replicates with signal | signal with controls | CDR-L1 | CDR-L2 | CDR-L3 |
|---|---|---|---|---|---|
| nd | 0/3 | 2/9 | EGDSLRYYYAN | YKNNYPS | SYRDSSGFQVF |
| 1.0 µM | 3/3 | 5/9 | EGDSVRYYYAN | GKNNRPS | QSRDISGFQVF |
| 770 nM | 1/3 | 4/9 | EGDSLRYYYAN | GGNNRPK | SSRDSSWFQVF |
| 7.0 µM | 1/3 | 1/9 | EHDSLRYYYAN | GKNNQPS | SSRYSSGFQVF |
| 33 µM | 2/3 | 4/9 | EGDSLRYYYAN | PKYYRPS | SSRDSSGFQVF |
| 630 nM | 3/3 | 1/9 | EGDSLRSYYAN | NKNNRPS | SSRDSSGFQVF |
| 84 µM | 1/3 | 4/9 | EGDSLRYYYAW | GKNSRPS | SSRDSSFFQVF |
| 2.2 µM | 2/3 | 7/9 | GGDRLRYYYAN | GWNNRPS | SSRDSSGFQVF |
| 9.1 µM | 2/3 | 3/9 | EFDSLRYYYAN | GQNGRPS | SSRDSSGFQVF |
| 380 nM | 3/3 | 3/9 | EGASLRYYYGN | GKNNRPS | SSRDSSGFQVC |
| 3.2 µM | 1/3 | 1/9 | MGDSLRYYRAL | GKNNRPS | SSRDSSGFQVF |
| 1.9 µM | 3/3 | 3/9 | EGDSLRYHRAN | GKNNWPS | SSRDSSGFQVF |
| 2.4 µM | 3/3 | 2/9 | EGDSLRYYFAN | GKNNRPS | SSRQSSGSQVF |
| 9.4 µM | 3/3 | 1/9 | EGDSLREYYAN | GKNNKPS | SSRDSSGFGVF |
| nd | 0/3 | 0/9 | EGDSLKYYYAN | GKNNRPS | SSPDSFGFQVF |
| nd | 0/3 | 1/9 | EGDSLRYYYAD | GKNNRPS | SSWDSSVFQVF |
| 2.7 µM | 3/3 | 3/9 | NGDSHRYYYAN | GKNNRPS | SSRKSSGFQVF |
| 4.8 µM | 3/3 | 3/9 | EGDSLRYYYAN | GKNFVPS | SSRDSSCFQVF |
| 2.9 µM | 2/3 | 0/9 | EGDSRRYYYAY | GKNNRPS | SSRDSSGFQVF |
| 110 nM | 3/3 | 1/9 | EGDSLRYYYAN | GKNNRPS | MSRDSSGFQVK |
| 650 nM | 1/3 | 0/9 | EYDSLQYYYAN | GKNNRPS | SSRDSSGIQVF |
| 8.5 µM | 2/3 | 3/9 | EGDCLRYYYAN | FKNNRPS | SSRFSSGFQVF |
| 39 µM | 2/3 | 4/9 | EGDSLRYYYAA | GQNNRPS | SSRDSSGHQVF |
| 3.2 µM | 2/3 | 3/9 | EGDYLRYYYAN | GKNNRGS | PSRDSSGFQVF |
| 3.3 µM | 1/3 | 2/9 | EGDSARYTYAN | GKNNRPS | SSRDSSGFQVC |
| 380 nM | 3/3 | 3/9 | EGDSLRSPYAN | GKNNRPS | SSRDSGGFQVF |
| 2.1 µM | 3/3 | 2/9 | EGGSCRYYYAN | GKNNRPS | SSRASSGFQVF |
| 820 µM | 1/3 | 2/9 | EGDSLRYYYAR | GKNNVPC | SSRDSSGFQVF |
| 3.1 µM | 2/3 | 5/9 | EGDSLRGYYAL | GKNARPS | SSRDSSGFQVF |
| nd | 0/3 | 2/9 | EGDSLRYYYAN | GKNNRHS | SSRDYSGFQGF |
| 150 nM | 3/3 | 4/9 | EGDSLRYYAAN | GPNNRPS | SSRDSSGFQVR |
| 22 µM | 3/3 | 4/9 | EGDSLRFYYAN | GKNNRPS | SSRDSSGFGTF |
| 61 µM | 2/3 | 4/9 | EGDSLRYYGAN | GKNCRPS | SSVDSSGFQVF |
| 4.3 µM | 1/3 | 2/9 | EGDSLRAYYAN | GKNSRPS | SSSDSSGFQVF |
| nd | 0/3 | 1/9 | ELDSLRYYYAN | GKSNDPS | SSRDSSGFQVF |
| 730 nM | 3/3 | 1/9 | EGDSLRYYYAN | GKDTRPS | SSRDSSTFQVF |
| nd | 0/3 | 0/9 | EGDSRRYYYAN | GKNNRYS | SSRDSSGFQVF |
| 830 nM | 1/3 | 1/9 | EGDSMRYYYAN | GKNNRPS | SERDSSGFQVV |
| 7.6 nM | 3/3 | 2/9 | EGDSLRGYYAN | GDNNRPS | SSGDSSGFQVF |
| 3.2 µM | 1/3 | 2/9 | EGDYLRYYEAN | GKNNRPS | SSRDSSGFGVF |
| 1.9 µM | 3/3 | 2/9 | EGDSLRYYYAN | GVNNRPQ | SSRDSEGFQVF |
| 6.6 µM | 2/3 | 2/9 | EGMSLRYYYAN | GKNNRPS | SSSDSSGFQVF |
| nd | 0/3 | 1/9 | EGDSGPYYYAD | GKNNRPS | SSRDSSGFQVF |
| 170 nM | 3/3 | 1/9 | EGDSLRYYYAN | GKNQHPS | SSRDASGFQVF |
| nd | 0/3 | 2/9 | EGDSLRVYYAN | GKNNRPS | VSRDSSPFQVF |
| 92 nM | 3/3 | 7/9 | HGDSQRYYYAN | GKNNRPS | SSRDSSGFQVF |
| nd | 0/3 | 0/9 | HGDSLRYYYAN | GKNNRCS | SSRDSSGFQVE |
| 6.9 µM | 2/3 | 3/9 | EGDSLRYYYAN | GKNNRRS | SSRDGSGFQVF |
| 9.1 µM | 2/3 | 3/9 | EGDSLRIYYAN | GKNNRAS | SSRLSSGFQVF |
| 450 nM | 3/3 | 4/9 | EGQSLRYYYAN | GKNNRPS | SSRDSSICQVF |
| 8.7 µM | 1/3 | 2/9 | EVDSLRYYYAN | GKNNRPY | SSRDSSGFQVT |
| 34 µM | 1/3 | 5/9 | EGDSGRYYYAN | GKNNRPS | SSRDLSKFQVF |
| 44 µM | 1/3 | 2/9 | EGDILRVYYAN | GKNNRPS | SYRDSSGFQVF |
| 470 nM | 2/3 | 4/9 | EGDDLRYYYAN | GINNRPS | SSRDSSGFQVF |
| nd | 0/3 | 2/9 | EPDSLRYYYAN | GKNNMPS | SSRDVSGFQVF |
| 3.4 µM | 1/3 | 1/9 | EGDSLRYYYAN | GKNNRPG | SSRQSSGFQVH |
| 420 nM | 2/3 | 1/9 | EGDSLRYYYAN | GKNNRPS | SSRTSSGVQVK |
| 4.0 µM | 2/3 | 0/9 | EGDSLRYYGAN | GKNNRPS | SKRDSSVFQVF |
| 870 nM | 2/3 | 0/9 | EGDSLRYYYAN | VKNNAPS | SSRMSSGFQVF |
| nd | 0/3 | 1/9 | ETDSLRYHYAN | GKNNRPS | SSRDSSGFCVF |
| 6.0 µM | 1/3 | 0/9 | CGDSLRYYYAN | GKNNRPS | SSEDSSFFQVF |
| 4.8 µM | 2/3 | 4/9 | EGDSLRYCYQN | IKNNRPS | SSRDSSGFQVF |

Again, the first 6 entries without any signal:

| CDR-L1 | CDR-L2 | CDR-L3 | apparent Kd | replicates with signal | signal with controls |
|---|---|---|---|---|---|
| EGDSLRYYYAN | YKNNYPS | SYRDSSGFQVF | nd | 0/3 | 2/9 |
| EGDSLKYYYAN | GKNNRPS | SSPDSFGFQVF | nd | 0/3 | 0/9 |
| EGDSLRYYYAD | GKNNRPS | SSWDSSVFQVF | nd | 0/3 | 1/9 |
| EGDSLRYYYAN | GKNNRHS | SSRDYSGFQGF | nd | 0/3 | 2/9 |
| ELDSLRYYYAN | GKSNDPS | SSRDSSGFQVF | nd | 0/3 | 1/9 |
| EGDSRRYYYAN | GKNNRYS | SSRDSSGFQVF | nd | 0/3 | 0/9 |

In this assay the parent's reference entry averaged 200 nM; its copy inside this library read 180 nM.